How the values were obtained:
[1] = tested on: mice exposed to chlorine; experiment: Chlorine-induced acute lung injury, survival in mice
[2] = tested on: mice exposed to phosgene; experiment: Phosgene-induced acute lung injury, survival in mice

Compound | survival (in words) ([1]; 300 ppm chlorine 45 min, 5 mg/kg i.p. 30 min post exposure (FIG. 2)) | net improvement in survival ([1]; SF1670 5 mg/kg i.p. vs saline treatment, 300 ppm chlorine 45 min) [%] | survival ([1]; mice, 300 ppm chlorine for 45 min, SF1670 5 mg/kg i.p. 30 min post exposure, saline 37.5%) [%] | survival (in words) ([2]; 30 ppm phosgene, 5 mg/kg i.p. 30 min post exposure (FIG. 4)) | efficacy compared with bpV(Phen) ([2]; in these studies) | survival ([2]; mice, 30 ppm phosgene for 1 hour, 5 mg/kg i.p. (FIG. 4)) [%] | survival curves vs saline injected control ([1]; 300 ppm chlorine 45 min, 0.7 μmol i.p. 30 minutes post exposure) | benefit in chlorine (in words) ([1]; overall judgement) | survival curves vs saline injected control ([2]; 30 ppm phosgene 1 hour, 0.7 μmol 30 min post exposure) | benefit in phosgene (in words) ([2]; overall judgement) | reduction of mortality ([2]; phosgene, 0.3 μmol, milestone target >20% (FIG. 3)) [%] | effective dose range ([2]; very narrow effective dose range)
CC(C)(C)C(=O)Nc1ccc2c(c1)C(=O)C(=O)c1ccccc1-2 | enhances survival | 45.5 | 83 | enhances survival | more effective than bpV(Phen) | 20 | – | – | – | – | – | –
Potassium bisperoxo(1,10-phenan-throline)oxovanadate | – | – | – | – | – | – | not different from saline injected control | only somewhat beneficial | not different from saline injected control | only somewhat beneficial | ≤ 20 | less than 1 log

Reference: patent US9492408B2, “Protection from chemical-induced acute lung injury” (dated 2016)
